From patent US6689803B2, “Compositions and methods for treating surgical adhesions” (Angiotech Pharmaceuticals, Inc., priority 1996, dated 2004)

Tested on: chick chorioallantoic membrane (CAM) vasculature
Assay: Chick chorioallantoic membrane (CAM) assay
Settings: PCL paste, concentrations exceeding 2%

With `CC[C@]1(O)C[C@@H]2CN(CCc3c([nH]c4ccccc34)[C@@](C(=O)OC)(c3cc4c(cc3OC)N(C)[C@H]3[C@@](O)(C(=O)OC)[C@H](OC(C)=O)[C@]5(CC)C=CCN6CC[C@]43[C@@H]65)C2)C1` the “toxicity to the embryo” value was “toxic to the embryo”.
